Here are results for three compounds from patent US5792767A, “Bicyclic substituted hexahydrobenz [e] isoindole alpha-1 adrenergic antagonists” (priority 1995, dated 1998).

This test has as its target T1, α-1A adrenoceptor (rat vas deferens) (Rattus norvegicus, UniProt P43140).
T1 sequence (P43140 1-466): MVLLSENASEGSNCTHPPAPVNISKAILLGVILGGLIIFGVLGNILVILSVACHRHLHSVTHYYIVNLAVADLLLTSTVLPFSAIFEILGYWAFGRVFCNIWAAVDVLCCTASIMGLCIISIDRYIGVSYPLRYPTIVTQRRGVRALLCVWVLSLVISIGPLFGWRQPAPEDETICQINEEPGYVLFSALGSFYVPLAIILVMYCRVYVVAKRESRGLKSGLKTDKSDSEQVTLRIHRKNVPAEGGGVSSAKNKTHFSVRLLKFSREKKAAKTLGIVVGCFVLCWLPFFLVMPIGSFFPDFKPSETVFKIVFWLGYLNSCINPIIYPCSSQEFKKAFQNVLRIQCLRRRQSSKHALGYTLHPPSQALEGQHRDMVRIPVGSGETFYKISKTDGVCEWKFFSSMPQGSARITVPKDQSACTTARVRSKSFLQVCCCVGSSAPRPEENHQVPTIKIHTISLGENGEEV
The experiment in a line: Functional antagonism of phenylephrine-induced contraction of rat vas deferens.

Structures can show the parent of a compound that is named as a salt.

The term Kb denotes the equilibrium dissociation constant of an antagonist, usually derived from a functional assay. For `COc1cc2[nH]c(=O)n(CCN3C[C@@H]4CCc5c(OC)cccc5[C@@H]4C3)c(=O)c2cc1OC` (relative stereo) [Example 10, hydrochloride], the antagonist equilibrium constant (Kb) is 9.12 nM.
The compound `COc1cccc2c1CC[C@H]1CN(CCn3c(=O)[nH]c4cc(Cl)ccc4c3=O)C[C@@H]21` (relative stereo) [Example 11, hydrochloride] gave a Kb of 2.04 nM.
Regarding `COc1cc2nc(N3CCN(C(=O)C4CCCO4)CC3)nc(N)c2cc1OC` (stereo not drawn) [terazosin, reference compound], the “pA2 Rat Vas Deferens [α-1A]” value (vs phenylephrine-induced contraction, Schild plot) is recorded as 8.04.
